In test [1] the test system is Daoy medulloblastoma cells. As to the kind of experiment: MTT cytotoxicity and median-effect (CI) analysis, Daoy.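 Also: drugs applied at fixed ratios over eight concentrations for 72 h, survival expressed against untreated control wells, affected fraction (fa) derived per well.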
Test [2] concerns Daoy (medulloblastoma) tumors. The test can be described thus: Efficacy against Daoy (medulloblastoma) tumors in nude mice, Kaplan-Meier. The note with it: Daoy tumors s.c., i.v. at days 17, 23 and 29.
Test [3] concerns SW480 colon cancer cells. As to the kind of experiment: MTT cytotoxicity and median-effect (CI) analysis, SW480. It counts as cell-based, human. As to conditions: SW480 cells (FIG. 1A).

In the case of `CC[C@]1(O)C[C@H]2CN(CCc3c([nH]c4ccccc34)[C@@](C(=O)OC)(c3cc4c(cc3OC)N(C=O)[C@H]3[C@@](O)(C(=O)OC)[C@H](OC(C)=O)[C@]5(CC)C=CCN6CC[C@]43[C@@H]65)C2)C1` [Vincristine (VCR), Vincristine], the figures for the “potency of VCR relative to TPT” value in test [1] and in test [3] were 15 fold and 4 fold, respectively. Also, the “therapeutic efficacy (Kaplan-Meier, tumor ≧1000 mg as endpoint)” value in test [2] is reported as “better than treatment with saline”; in test [2] (listed as Free VCR), “more efficacious for treatment of medulloblastome than free TPT”.

Source of the values: patent US20130052259A1, “LIPOSOMES COMPRISING AMPHIPATHIC DRUGS AND METHOD FOR THEIR PREPARATION” (priority 2010, published 2013).
